Experimental data reported in US20250051346A1 (priority 2021, published 2025).

Sequences of proteins named here, by UniProt entry; tags and fusion partners are left off. Residues count along the entry.
UniProt P28335, whole entry I156V/N158S/I160V, looked up: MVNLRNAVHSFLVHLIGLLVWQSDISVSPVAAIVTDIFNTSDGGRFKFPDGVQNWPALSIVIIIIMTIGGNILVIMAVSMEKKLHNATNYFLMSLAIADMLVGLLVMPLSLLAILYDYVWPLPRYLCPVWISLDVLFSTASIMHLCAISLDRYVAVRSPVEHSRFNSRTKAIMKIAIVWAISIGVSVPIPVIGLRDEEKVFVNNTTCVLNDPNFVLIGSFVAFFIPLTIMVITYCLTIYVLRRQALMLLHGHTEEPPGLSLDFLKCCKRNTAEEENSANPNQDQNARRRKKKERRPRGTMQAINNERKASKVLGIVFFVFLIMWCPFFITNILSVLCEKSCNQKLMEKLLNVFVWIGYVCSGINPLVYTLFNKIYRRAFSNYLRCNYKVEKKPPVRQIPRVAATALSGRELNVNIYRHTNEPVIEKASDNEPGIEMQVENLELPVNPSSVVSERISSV
UniProt P28335, 33-458 I156V/N158S/I160V limits assumed: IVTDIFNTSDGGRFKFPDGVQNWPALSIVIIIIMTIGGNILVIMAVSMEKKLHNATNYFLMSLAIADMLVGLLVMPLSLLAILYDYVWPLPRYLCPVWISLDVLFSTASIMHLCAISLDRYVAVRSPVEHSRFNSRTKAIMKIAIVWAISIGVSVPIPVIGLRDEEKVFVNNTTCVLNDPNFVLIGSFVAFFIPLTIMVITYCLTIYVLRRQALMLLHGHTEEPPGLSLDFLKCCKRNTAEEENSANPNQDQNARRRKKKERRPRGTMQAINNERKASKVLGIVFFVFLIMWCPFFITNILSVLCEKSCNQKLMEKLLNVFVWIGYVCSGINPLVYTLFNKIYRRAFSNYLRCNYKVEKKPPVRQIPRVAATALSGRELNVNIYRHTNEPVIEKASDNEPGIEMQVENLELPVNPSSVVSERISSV

Columns and labels:
[1] = biological target: human recombinant 5-HT2C edited receptor (accession number AAF35842.1) (Homo sapiens, UniProt P28335, I156V/N158S/I160V); experiment: Serotonin 5-HT2C in vitro cellular IPOne agonism assay; details: read-out: 5HT2C IPONE AGONISM ACTIVITY, CHO-K1 cells, 60 min
[2] = biological target: 5-HT2C edited (accession number AAF35842.1) (Homo sapiens, UniProt P28335, I156V/I160V/N158S); experiment: Serotonin 5-HT2C in vitro radioligand binding competition assay; details: read-out: 5HT2C RADIOLIGAND BINIDNG ACTIVITY, [3H]-DOI radiotracer, membrane extracts

Structure (SMILES): FC(F)(F)c1ccc2c3c(oc2c1)CCCNC3 [Compound 48, 8-(trifluoromethyl)-2,3,4,5-tetrahydro-1H-benzofuro[3,2-c]azepine]
- EC50 ([1]; benzofurans): 1 to 10 µM
- IC50 ([2]; benzofurans): 0.101 to 1 µM

Structure (SMILES): FC(F)(F)Oc1ccc2c3c(oc2c1)CCCNC3 [Compound 49, 8-(trifluoromethoxy)-2,3,4,5-tetrahydro-1H-benzofuro[3,2-c]azepine]
- EC50 ([1]; benzofurans): 1 to 10 µM
- IC50 ([2]; benzofurans): 0.101 to 1 µM

Structure (SMILES): c1ccc(COc2ccc3c4c(oc3c2)CCCNC4)cc1 [Compound 50, 8-(benzyloxy)-2,3,4,5-tetrahydro-1H-benzofuro[3,2-c]azepine]
- EC50 ([1]; benzofurans): > 10 µM
- IC50 ([2]; benzofurans): 0.101 to 1 µM

Structure (SMILES): c1ccc(COc2cccc3oc4c(c23)CNCCC4)cc1 [Compound 51, 10-(benzyloxy)-2,3,4,5-tetrahydro-1H-benzofuro[3,2-c]azepine]
- EC50 ([1]; benzofurans): > 10 µM
- IC50 ([2]; benzofurans): 1 to 10 µM

Structure (SMILES): CN1CCCc2oc3cc(C(F)(F)F)ccc3c2C1 [Compound 52, 2-methyl-8-(trifluoromethyl)-2,3,4,5-tetrahydro-1H-benzofuro[3,2-c]azepine]
- EC50 ([1]; benzofurans): > 10 µM
- IC50 ([2]; benzofurans): 1 to 10 µM

Structure (SMILES): CN1CCCc2oc3cc(OC(F)(F)F)ccc3c2C1 [Compound 53, 2-methyl-8-(trifluoromethoxy)-2,3,4,5-tetrahydro-1H-benzofuro[3,2-c]azepine]
- EC50 ([1]; benzofurans): > 10 µM
- IC50 ([2]; benzofurans): 1 to 10 µM

Structure (SMILES): CN1CCCc2oc3cccc(OCc4ccccc4)c3c2C1 [Compound 55, 10-(benzyloxy)-2-methyl-2,3,4,5-tetrahydro-1H-benzofuro[3,2-c]azepine]
- EC50 ([1]; benzofurans): > 10 µM
- IC50 ([2]; benzofurans): 0.01 to 0.1 µM

Structure (SMILES): c1ccc2c3c(sc2c1)CCNCC3 [Compound 65, 2,3,4,5-tetrahydro-1H-benzo[4,5]thieno[2,3-d]azepine]
- EC50 ([1]; benzothiophenes): < 0.01 µM
- IC50 ([2]; benzothiophenes): < 0.01 µM

Structure (SMILES): FC(F)(F)Oc1ccc2c3c(sc2c1)CCNCC3 [Compound 66, 8-(trifluoromethoxy)-2,3,4,5-tetrahydro-1H-benzo[4,5]thieno[2,3-d]azepine]
- EC50 ([1]; benzothiophenes): 0.01 to 0.1 µM
- IC50 ([2]; benzothiophenes): 0.01 to 0.1 µM

Structure (SMILES): FC(F)(F)Oc1cccc2sc3c(c12)CCNCC3 [Compound 67, 10-(trifluoromethoxy)-2,3,4,5-tetrahydro-1H-benzo[4,5]thieno[2,3-d]azepine]
- EC50 ([1]; benzothiophenes): < 0.01 µM
- IC50 ([2]; benzothiophenes): < 0.01 µM

Structure (SMILES): FC(F)(F)Oc1cccc2sc3c(c12)CCN(C1CCC1)CC3 [Compound 68, 3-cyclobutyl-10-(trifluoromethoxy)-2,3,4,5-tetrahydro-1H-benzo[4,5]thieno[2,3-d]azepine]
- EC50 ([1]; benzothiophenes): 0.101 to 1 µM
- IC50 ([2]; benzothiophenes): 0.101 to 1 µM

Structure (SMILES): FC(F)(F)CN1CCc2sc3ccccc3c2CC1 [Compound 69, 3-(2,2,2-trifluoroethyl)-2,3,4,5-tetrahydro-1H-benzo[4,5]thieno[2,3-d]azepine]
- EC50 ([1]; benzothiophenes): 1 to 10 µM
- IC50 ([2]; benzothiophenes): 1 to 10 µM

Structure (SMILES): COc1ccc2c3c(sc2c1)CCN(CC(F)(F)F)CC3 [Compound 70, 8-methoxy-3-(2,2,2-trifluoroethyl)-2,3,4,5-tetrahydro-1H-benzo[4,5]thieno[2,3-d]azepine]
- EC50 ([1]; benzothiophenes): 1 to 10 µM
- IC50 ([2]; benzothiophenes): 1 to 10 µM

Structure (SMILES): Fc1ccc2c3c(sc2c1)CCN(CC(F)(F)F)CC3 [Compound 71, 8-fluoro-3-(2,2,2-trifluoroethyl)-2,3,4,5-tetrahydro-1H-benzo[4,5]thieno[2,3-d]azepine]
- EC50 ([1]; benzothiophenes): 0.101 to 1 µM
- IC50 ([2]; benzothiophenes): > 10 µM

Structure (SMILES): CN1CCc2sc3ccccc3c2CC1 [Compound 72, 3-methyl-2,3,4,5-tetrahydro-1H-benzo[4,5]thieno[2,3-d]azepine]
- EC50 ([1]; benzothiophenes): < 0.01 µM
- IC50 ([2]; benzothiophenes): < 0.01 µM

Structure (SMILES): COc1ccc2c3c(sc2c1)CCN(C1CCC1)CC3 [Compound 74, 3-cyclobutyl-8-methoxy-2,3,4,5-tetrahydro-1H-benzo[4,5]thieno[2,3-d]azepine]
- EC50 ([1]; benzothiophenes): 0.101 to 1 µM
- IC50 ([2]; benzothiophenes): 1 to 10 µM

Structure (SMILES): FC(F)(F)Oc1ccc2c3c(sc2c1)CCN(C1CCC1)CC3 [Compound 76, 3-cyclobutyl-8-(trifluoromethoxy)-2,3,4,5-tetrahydro-1H-benzo[4,5]thieno[2,3-d]azepine]
- EC50 ([1]; benzothiophenes): 1 to 10 µM
- IC50 ([2]; benzothiophenes): 1 to 10 µM

Structure (SMILES): c1ccc(COc2ccc3c4c(sc3c2)CCNCC4)cc1 [Compound 77, 8-(benzyloxy)-2,3,4,5-tetrahydro-1H-benzo[4,5]thieno[2,3-d]azepine]
- EC50 ([1]; benzothiophenes): 1 to 10 µM
- IC50 ([2]; benzothiophenes): 1 to 10 µM

Structure (SMILES): c1ccc(COc2ccc3c4c(sc3c2)CCN(C2CCC2)CC4)cc1 [Compound 78, 8-(benzyloxy)-3-cyclobutyl-2,3,4,5-tetrahydro-1H-benzo[4,5]thieno[2,3-d]azepine]
- EC50 ([1]; benzothiophenes): > 10 µM
- IC50 ([2]; benzothiophenes): 1 to 10 µM

Structure (SMILES): CN1CCc2sc3cc(OCc4ccccc4)ccc3c2CC1 [Compound 79, 8-(benzyloxy)-3-methyl-2,3,4,5-tetrahydro-1H-benzo[4,5]thieno[2,3-d]azepine]
- EC50 ([1]; benzothiophenes): 1 to 10 µM
- IC50 ([2]; benzothiophenes): 1 to 10 µM

Structure (SMILES): Oc1ccc2c3c(sc2c1)CCNCC3 [Compound 80, 2,3,4,5-tetrahydro-1H-benzo[4,5]thieno[2,3-d]azepin-8-ol]
- EC50 ([1]; benzothiophenes): 0.01 to 0.1 µM
- IC50 ([2]; benzothiophenes): 0.01 to 0.1 µM

Where two headings read alike, the source gives them in different places.
